Source: patent US20230108186A1, “NITRIC OXIDE-RELEASING ANTIBACTERIAL COMPOUNDS, FORMULATIONS, AND METHODS PERTAINING THERETO” (published 2023)

Assay: Nitric oxide analysis (NOA) release profile measured by chemiluminescence

## [O-]/[N+](=N\O)C(/[N+]([O-])=N/O)/[N+]([O-])=N/O
Basis of the theoretical yield
  moles of NO released per 1 mole, in keeping with the described degradation pathway: 2 mol
Release of a single diazeniumdiolate group, 2 moles NO per mole
  theoretical load / theoretical yield of NO: 7.6 μmol NO/mg
